The values below come from patent US20200338203A1 (Bicycle, published 2020).

Sequences of proteins named here, by UniProt entry; tags and fusion partners are left off. Residues count along the entry.
UniProt P29317, 24-537: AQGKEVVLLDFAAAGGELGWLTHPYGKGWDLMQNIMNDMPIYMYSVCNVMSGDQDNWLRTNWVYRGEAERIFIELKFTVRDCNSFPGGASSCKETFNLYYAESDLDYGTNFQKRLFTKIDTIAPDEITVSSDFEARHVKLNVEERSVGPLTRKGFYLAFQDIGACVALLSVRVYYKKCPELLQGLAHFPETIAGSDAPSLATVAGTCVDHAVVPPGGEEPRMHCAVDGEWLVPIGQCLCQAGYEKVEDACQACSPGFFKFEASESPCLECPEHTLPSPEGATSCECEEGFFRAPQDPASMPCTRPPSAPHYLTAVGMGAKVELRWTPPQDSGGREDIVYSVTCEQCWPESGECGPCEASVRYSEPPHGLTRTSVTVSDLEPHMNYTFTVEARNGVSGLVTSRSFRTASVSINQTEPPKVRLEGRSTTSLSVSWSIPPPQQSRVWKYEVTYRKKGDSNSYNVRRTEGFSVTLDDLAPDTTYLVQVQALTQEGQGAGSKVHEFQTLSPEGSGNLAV

Usually Ki stands for the dissociation constant of the complex between target and ligand, obtained from inhibition or displacement.

One experiment deals with T1, Human EphA2 (Human, UniProt P29317 24-537).
T1 construct: extracellular domain; also called EphA2 (Ecto), Human
As to the kind of experiment: FP competition; competitor: fluorescent Compound 66. Here is the method: (§1) Peptides without a fluorescent tag were tested in competition with a peptide with a fluorescent tag and a known Kd (Table 2). Peptides were diluted to an appropriate concentration in assay buffer as described in the direct binding assay with a maximum of 5% DMSO, then serially diluted 1 in 2. Five μL of diluted peptide was added to the plate followed by 10 μL of human or mouse EphA2 (Table 1) at a fixed concentration which was dependent on the fluorescent peptide used (Table 2), then 10 μL fluorescent peptide added. Measurements were conducted as for the direct binding assay, however the gain was determined prior to the first measurement.
Regarding CANDWLCSLGWTC (N-terminal acetyl; three Cys cyclised on TBMB, bicyclic peptide), the Ki turned out to be 0.328 µM.
On the same count and under the same terms, the figure for CMNDWLCSAGWTC (N-terminal acetyl; three Cys cyclised on TBMB, bicyclic peptide) is 0.356 µM; for CMNDWLCALGWTC (N-terminal acetyl; three Cys cyclised on TBMB, bicyclic peptide) it is 0.0716 µM.

The next experiment has as its target T2, Human EphA2 (Ecto) (Human, UniProt P29317 24-537).
T2 construct: extracellular domain
As to the kind of experiment: FP competition; competitor Compound 66. As for the experimental part:
as §1
For CMNDWLCSAGWTC (printed: Ac-CMNDWLCSAGWTC; TBMB on the 3 Cys), the Ki is 0.356 µM.
The same measure, in the same setting: next, ADVRTCPWGPFWCPVNRPGCA (TBMB on the 3 Cys) [Compound 60]: 0.0025 µM; CMNDWLCALGWTC (printed: Ac-CMNDWLCALGWTC; TBMB on the 3 Cys): 0.0716 µM; ACPWGPAWCPVNRNGCA (TBMB on the 3 Cys) [Compound 52]: 0.168 µM.
For CANDWLCSLGWTC (printed: Ac-CANDWLCSLGWTC; TBMB on the 3 Cys), the inhibition constant Ki amounted to 0.328 µM.

Another experiment deals with T2, Human EphA2 (Ecto). Put plainly: FP competition; competitor Compound 18. As for the experimental part: as §1
With ADVRTCPWGPFWCPVNRPGCA (TBMB on the 3 Cys) [Compound 60], the inhibitory constant (Ki) is 0.0126 µM.
ARDDPCPWGPFWCPVNRPGCA (TBMB on the 3 Cys) [Compound 62]: the Ki turned out to be 0.0161 µM.
